Test results taken from patent publication US11786497B2, “High penetration prodrug compositions of retinoids and retinoids-related compounds” (Techfields Pharma Co., Ltd., priority 2007, dated 2023).

System: human colon cancer cells (LS174J)
Assay: Anti-colon cancer activity, subcutaneous xenograft in nude mice
[1] = 10 mg/kg per day, transdermally, n=7

| Structure (SMILES) | Life Elongation Rate (10 mg/kg per day, transdermally, control = 100) [%] | Tumor size at day 40 [1] [mm^3] | Tumor size at day 10 (10 days after implantation (baseline size of the group)) [mm^3] | Survival Period [1] [days] |
| --- | --- | --- | --- | --- |
| C=C(c1ccc(C(=O)OCN2CCCC2)cc1)c1cc2c(cc1C)C(C)(C)CCC2(C)C.Cl | 209 | 487 ± 61 | 56 ± 1 | – |
| Br.CC1=C(/C=C/C(C)=C\C=C\C(C)=C\C(=O)OCC2CCCN2)C(C)(C)CCC1 (stereo not drawn) [9-cis-retinoic acid 2-pyrrolidinemethyl ester·HBr] | – | – | – | 81.5 ± 5.7 |
| Br.CC1=C(/C=C/C(C)=C/C=C/C(C)=C/C(=O)OCCN2CCCCC2)C(C)(C)CCC1 | – | – | – | 85.7 ± 7.6 |
